{
  "source": "patent US11413255B2",
  "about": "“Multifunctional cytoprotectant for treatment of pathogenic processes mediated by oxidative stress and toxic electrophiles” (Montefiore Medical Center, priority 2015, dated 2022)",
  "test_system": "isolated hepatocytes exposed to graded APAP",
  "experiment": "Isolated hepatocytes, fixed protectant and graded APAP concentrations",
  "type": "cell-based, mouse",
  "settings": "1.0 mM protectant",
  "data": [
    {"smiles": "Oc1cc(O)cc(O)c1", "note": "[PG, 1,3,5-trihydroxybenzene]", "values": [
      {"measurement": "toxicity measures (ALT appearance, mitochondrial membrane potential)", "result": "near-normal"}
    ]}
  ]
}
